This is an account of results in ChEMBL document CHEMBL3576769, “Probing the Physicochemical Boundaries of Cell Permeability and Oral Bioavailability in Lipophilic Macrocycles Inspired by Natural Products” (J Med Chem, 2015).

Series [1] is described as follows: Permeability of the compound at 10 uM after 5 hrs by LC-MS detection based PAMPA method. The class given is physicochemical. The following applies: read-out: Peff. A general note: The PAMPA barrier holds no transporters, so it reflects passive diffusion.
Series [2] is described as follows: Permeability of the compound assessed as recovery at 10 uM after 5 hrs by LC-MS detection based PAMPA method.
Series [3] can be described thus: Permeability of the compound assessed as drug transmittance level at 10 uM after 5 hrs by LC-MS detection based PAMPA method. The class given is physicochemical.
Series [4] is described as follows: Apparent permeability from apical to basolateral side in low-efflux MDCK cells expressing low levels of endogenous P-glycoprotein at […] incubated for 2 hrs by LC-MS/MS method. It is filed as ADME, cell-based, Canis lupus familiaris. The following applies: dog.
The nature of series [5]: Permeability of the compound assessed as drug transmittance level at 10 uM after 16 hrs by LC-MS detection based PAMPA method. The class given is physicochemical.
Series [6] can be described thus: Permeability of the compound at 10 uM after 16 hrs by LC-MS detection based PAMPA method. The class given is physicochemical. The following applies: read-out: Peff.

As to `CC(C)C[C@@H]1NC(=O)[C@H](CC(C)C)N(C)C(=O)[C@H](CC(C)C)N(C)C(=O)C[C@@H](O)[C@@H](CC(C)C)NC(=O)[C@H]2CCCN2C(=O)[C@H](CC(C)C)N(C)C(=O)C[C@@H]1O`, in series [1], the Papp at 5 h, 10 µM came out at 12 ×10⁻⁶ cm/s. The recovery in series [2] came to 73%. Also, the permeability in series [3] came out at 41%.

In general, Papp A→B refers to the apparent permeability from the apical to the basolateral side of a cell layer. In the case of `CC(C)C[C@@H]1NC(=O)[C@@H](CC(C)C)N(C)C(=O)[C@H](CC(C)C)N(C)C(=O)C[C@H](O)[C@H](CC(C)C)NC(=O)[C@H]2CCCN2C(=O)[C@H](CC(C)C)N(C)C(=O)C[C@@H]1O`, the Papp A→B at 2 h in series [4] amounted to 1.4 ×10⁻⁶ cm/s. The Papp at 5 h, 10 µM in series [1] is 2 ×10⁻⁶ cm/s. The recovery in series [2] came to 96%. For the same compound, the permeability in series [3] was determined as 7%.

As for `CC(C)C[C@@H]1NC(=O)[C@H]2CCCN2C(=O)[C@H](CC(C)C)N(C)C(=O)C[C@H](O)[C@H](CC(C)C)NC(=O)[C@H](CC(C)C)N(C)C(=O)[C@H](CC(C)C)N(C)C(=O)C[C@@H]1O`, in series [4], the Papp A→B at 2 h was determined as 0.8 ×10⁻⁶ cm/s. Moreover, the Papp at 5 h, 10 µM in series [1] is 1 ×10⁻⁶ cm/s. Besides, the recovery in series [2] stood at 54%. For the same compound, the permeability in series [3] was found to be 2%.

On to `CC(C)C[C@@H]1NC(=O)[C@H](CC(C)C)N(C)C(=O)[C@H](CC(C)C)N(C)C(=O)C[C@H](O)[C@H](CC(C)C)NC(=O)[C@@H]2CCCN2C(=O)[C@H](CC(C)C)N(C)C(=O)C[C@@H]1O`, for which the Papp A→B at 2 h in series [4] was 3.6 ×10⁻⁶ cm/s. Also, in series [1], the Papp at 5 h, 10 µM was found to be 8 ×10⁻⁶ cm/s. Further, the recovery in series [2] worked out at 56%. The permeability in series [3] was determined as 28%.

`CC(C)C[C@@H]1NC(=O)[C@H]2CCCN2C(=O)[C@H](CC(C)C)N(C)C(=O)C[C@@H](O)[C@@H](CC(C)C)NC(=O)[C@H](CC(C)C)N(C)C(=O)[C@H](CC(C)C)N(C)C(=O)C[C@@H]1O`: the Papp A→B at 2 h in series [4] stood at 2 ×10⁻⁶ cm/s. For the same compound, the Papp at 5 h, 10 µM in series [1] was found to be 20 ×10⁻⁶ cm/s. Further, the recovery in series [2] was found to be 68%. In series [3], the permeability is reported as 58%.

As to `CC(C)C[C@@H]1NC(=O)[C@H](Cc2ccc(O)cc2)N(C)C(=O)[C@H]2CCCN2C(=O)[C@H](CC(C)C)NC(=O)[C@H](CC(C)C)N(C)C(=O)[C@@H](CC(C)C)N(C)C1=O`, in series [5], the permeability is 35%. In addition, the Papp at 16 h, 10 µM in series [6] is 3 ×10⁻⁶ cm/s.

As for `CC(C)C[C@@H]1NC(=O)[C@@H](CC(C)C)N(C)C(=O)[C@@H](CC(C)C)N(C)C(=O)C[C@@H](O)[C@@H](CC(C)C)NC(=O)[C@H]2CCCN2C(=O)[C@@H](CC(C)C)N(C)C(=O)C[C@@H]1O`, the Papp at 5 h, 10 µM in series [1] is 3 ×10⁻⁶ cm/s. Further, the recovery in series [2] came out at 26%. Also, in series [3], the permeability is listed as 12%.

Take `CC(C)C[C@@H]1NC(=O)[C@H]2CCCN2C(=O)[C@@H](CC(C)C)N(C)C(=O)C[C@@H](O)[C@@H](CC(C)C)NC(=O)[C@@H](CC(C)C)N(C)C(=O)[C@@H](CC(C)C)N(C)C(=O)C[C@@H]1O`: the Papp A→B at 2 h in series [4] was found to be 5.7 ×10⁻⁶ cm/s. Besides, the Papp at 5 h, 10 µM in series [1] was found to be 7 ×10⁻⁶ cm/s. In addition, the recovery in series [2] is 76%. In addition, in series [3], the permeability came out at 25%.

On to `CC(C)C[C@@H]1NC(=O)[C@H]2CCCN2C(=O)[C@H](CC(C)C)N(C)C(=O)C[C@H](O)[C@H](CC(C)C)NC(=O)[C@H](CC(C)C)N(C)C(=O)[C@@H](CC(C)C)N(C)C(=O)C[C@@H]1O`, for which, in series [4], the Papp A→B at 2 h was found to be 7.7 ×10⁻⁶ cm/s. Besides, the Papp at 5 h, 10 µM in series [1] is 7 ×10⁻⁶ cm/s. For the same compound, in series [2], the recovery worked out at 40%. The permeability in series [3] was found to be 25%.

As for `CC(C)C[C@H]1NC(=O)[C@H]2CCCN2C(=O)[C@H](CC(C)C)N(C)C(=O)C[C@@H](O)[C@@H](CC(C)C)NC(=O)[C@H](CC(C)C)N(C)C(=O)[C@H](CC(C)C)N(C)C(=O)C[C@H]1O`, the Papp at 5 h, 10 µM in series [1] stood at 4 ×10⁻⁶ cm/s. In series [2], the recovery is 26%. Moreover, in series [3], the permeability is reported as 16%.

On to `CC(C)C[C@@H]1NC(=O)[C@H]2CCCN2C(=O)[C@@H](CC(C)C)N(C)C(=O)C[C@H](O)[C@H](CC(C)C)NC(=O)[C@H](CC(C)C)N(C)C(=O)[C@H](CC(C)C)N(C)C(=O)C[C@@H]1O`, for which the Papp at 5 h, 10 µM in series [1] is 6 ×10⁻⁶ cm/s. Moreover, the recovery in series [2] was 92%. The permeability in series [3] was 24%.
